# Laboratory results as given in PubChem BioAssay AID652017 (The Scripps Research Institute Molecular Screening Center, 2013).
# The entries are a selection whose mix differs from that of the whole data set. Some tests of the compounds listed are not included; inactive here does not mean inactive elsewhere. Activity calls are given as the source filed them. Cut-off read from the data, not from the text of the source: active = activation above about 7.8%; inactive = the rest.
# Assay: SMARCA2 (BRM) function activators, primary screen, cell-based, luminescence, high throughput (AID 652017);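 note: 0% = vehicle wells and 100% = reference activator wells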
# Conditions: MG213 cells, MMTV-luciferase reporter, dexamethasone, overnight; at 9.1 µM; hits give high values
row,Structure (SMILES),activation
1,CN1[C@@H]2CC[C@H]1CC(OC(=O)C(O)(c1ccccc1)c1ccccc1)C2 (stereo partly specified),inactive: -1.77%
2,O=C(NCC1(N2CCCCC2)CCCCC1)c1cc([N+](=O)[O-])ccc1Cl,inactive: 1.07%
3,Cc1ccc(C(=O)NCC2(N3CCCCC3)CCCCC2)cc1,inactive: 0.41%
4,CC(C)N1C(=O)CC2(CCN(CCOC(=O)C(O)(c3ccccc3)c3ccccc3)CC2)C1=O,inactive: -3.54%
5,CCN(CC)CC(C)C(C)OC(=O)C(O)(c1ccccc1)c1ccccc1 (stereo unspecified),inactive: 0.81%
6,COc1cc(SC)ccc1C(=O)NCC1(N(C)C)CCCCC1,inactive: -2.71%
7,Cc1ccccc1C(=O)NCC1(N2CCCCC2)CCCCC1,inactive: 4.38%
8,CN(C)c1ccc(C(=O)NCC2(N(C)C)CCCCC2)cc1,inactive: 4.52%
9,CN(C)C1CCCC1OC(=O)C(O)(c1ccccc1)c1ccccc1 (stereo unspecified),inactive: -3.66%
10,CCN1CCCC(OC(=O)C2(O)c3ccccc3C=Cc3ccccc32)C1 (stereo unspecified),inactive: 0.6%
11,Cc1cc(C(=O)NCC2(N3CCCCC3)CCCCC2)ccc1[N+](=O)[O-],inactive: -0.15%
12,O=C(NCC1(N2CCCCC2)CCCCC1)c1cccc(Br)c1,inactive: 2.25%
13,COc1ccc(C(=O)NCC2(N(C)C)CCCCC2)cc1,inactive: -1.9%
14,C=CCN1CCN(CCOC(=O)C(O)(c2ccccc2)c2ccccc2)CC1,inactive: 0.18%
15,O=C(NCC1(N2CCCCC2)CCCCC1)c1cc(F)c(F)cc1Cl,inactive: -1.95%
16,COc1cc(C(=O)NCC2(N(C)C)CCCCC2)c([N+](=O)[O-])cc1OC,inactive: 0%
17,CN(C)C1(CNC(=O)c2ccc(Br)cc2)CCCCC1,inactive: -2.39%
18,O=C(NCC1(N2CCCCC2)CCCCC1)c1cccc(Cl)c1,inactive: -1.16%
19,COc1cccc(C(=O)NCC2(N3CCCCC3)CCCCC2)c1,inactive: -4.36%
20,COc1ccc(Cl)cc1C(=O)NCC1(N(C)C)CCCCC1,inactive: -1.54%
21,O=C(OC1CN2CCC1CC2)C(CO)(c1ccccc1)c1ccccc1 (stereo unspecified),inactive: 0.89%
22,CN(C)c1cccc(C(=O)NCC2(N(C)C)CCCCC2)c1,inactive: 1.81%
23,CC(C)Oc1ccc(C(=O)NCC2(N(C)C)CCCCC2)cc1,inactive: -4.31%
24,O=C(OCCN1CCCC1)C(O)(c1ccccc1)c1ccccc1,inactive: -0.51%
25,COc1ccc(Br)c(C(=O)NCC2(N3CCCCC3)CCCCC2)c1,inactive: -2.53%
26,C=C(C)C#CC(O)(C(=O)OC1CCN(C)CC1)c1ccccc1 (stereo unspecified),inactive: -5.03%
